# The list shows a part of the results, in another mix than the full data. Some tests of the compounds listed are not included; inactive here does not mean inactive elsewhere. Activity calls are given as the source filed them.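 The calls were made as follows: active = calcium response B-score plate-corrected fluorescence ratio at least 3 library SD, with starting fluorescence B-score inside 5 SD; inactive = the rest.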
# The chains behind the UniProt entries cited, without tags or fusion partners.
# UniProt Q96LB2, whole entry: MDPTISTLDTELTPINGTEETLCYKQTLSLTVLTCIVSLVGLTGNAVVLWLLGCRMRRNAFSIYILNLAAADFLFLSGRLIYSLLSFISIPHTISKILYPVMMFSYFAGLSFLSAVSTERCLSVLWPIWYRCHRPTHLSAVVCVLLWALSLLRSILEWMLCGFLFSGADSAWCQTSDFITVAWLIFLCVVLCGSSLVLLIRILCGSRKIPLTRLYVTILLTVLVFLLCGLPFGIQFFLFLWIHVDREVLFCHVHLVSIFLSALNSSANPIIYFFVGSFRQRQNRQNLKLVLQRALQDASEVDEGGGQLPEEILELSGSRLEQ
# Biological target: Mas-related G-protein coupled receptor member X1 (Homo sapiens) (UniProt Q96LB2)
# Assay: MrgX1 activation via calcium signaling – HEK293 cells, Fluo-4 calcium flux, primary screen (AID 588627)
# Settings: Fluo-4 calcium fluorescence, agonist mode, at 10 µM
# Outline: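 Test system: HEK293 cells stably expressing human MrgX1 receptor; amount: 15,000 cells per well; doses: compound delivered in addition one of three; times: overnight plating before 1 h dye loading; detection: Fluo-4 NW calcium-flux fluorescence, kinetic read; read-out basis: B-scored fluorescence response ratio; controls: positive and negative controls per plate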
row,Structure (SMILES),outcome
1,COc1ccc(Br)c(C(=O)NCC2(N3CCCCC3)CCCCC2)c1,inactive
2,CN(C)c1cccc(C(=O)NCC2(N(C)C)CCCCC2)c1,inactive
3,CC(C)Oc1ccc(C(=O)NCC2(N(C)C)CCCCC2)cc1,inactive
4,O=C(OC1CN2CCC1CC2)C(CO)(c1ccccc1)c1ccccc1 (centres undefined),inactive
5,COc1ccc(Cl)cc1C(=O)NCC1(N(C)C)CCCCC1,inactive
6,COc1cccc(C(=O)NCC2(N3CCCCC3)CCCCC2)c1,inactive
7,O=C(NCC1(N2CCCCC2)CCCCC1)c1cccc(Cl)c1,inactive
8,CN(C)C1(CNC(=O)c2ccc(Br)cc2)CCCCC1,inactive
9,COc1cc(C(=O)NCC2(N(C)C)CCCCC2)c([N+](=O)[O-])cc1OC,inactive
10,O=C(NCC1(N2CCCCC2)CCCCC1)c1cc(F)c(F)cc1Cl,inactive
11,C=CCN1CCN(CCOC(=O)C(O)(c2ccccc2)c2ccccc2)CC1,inactive
12,O=C(NCC1(N2CCCCC2)CCCCC1)c1cccc(Br)c1,inactive
13,Cc1cc(C(=O)NCC2(N3CCCCC3)CCCCC2)ccc1[N+](=O)[O-],inactive
14,CCN1CCCC(OC(=O)C2(O)c3ccccc3C=Cc3ccccc32)C1 (centres undefined),inactive
15,COc1ccc(C(=O)NCC2(N(C)C)CCCCC2)cc1,inactive
16,CN(C)C1CCCC1OC(=O)C(O)(c1ccccc1)c1ccccc1 (centres undefined),inactive
17,CN(C)c1ccc(C(=O)NCC2(N(C)C)CCCCC2)cc1,inactive
18,Cc1ccccc1C(=O)NCC1(N2CCCCC2)CCCCC1,inactive
19,CC(C)N1C(=O)CC2(CCN(CCOC(=O)C(O)(c3ccccc3)c3ccccc3)CC2)C1=O,inactive
20,COc1cc(SC)ccc1C(=O)NCC1(N(C)C)CCCCC1,inactive
21,CCN(CC)CC(C)C(C)OC(=O)C(O)(c1ccccc1)c1ccccc1 (centres undefined),inactive
22,Cc1ccc(C(=O)NCC2(N3CCCCC3)CCCCC2)cc1,inactive
23,O=C(NCC1(N2CCCCC2)CCCCC1)c1cc([N+](=O)[O-])ccc1Cl,inactive
24,CN1[C@@H]2CC[C@H]1CC(OC(=O)C(O)(c1ccccc1)c1ccccc1)C2 (some centres undefined),inactive
